This passage reports log10 OH rate constant (cm³/molecule/s) results from the OPERA property sets (Mansouri et al. 2018).

In the case of `CO[N+](=O)[O-]`, the log10 OH rate constant (cm³/molecule/s) is -12.5. `CC(CO[N+](=O)[O-])O[N+](=O)[O-]` (configuration not stated) showed a log10 OH rate constant (cm³/molecule/s) of under -12.5.
